Test results as given in article PMC10692228, “A simple method for developing lysine targeted covalent protein reagents” (Nature Communications, 2023).
Each block holds one substance with its values, some of them ahead of it.

Legend:
[1] = tested on: 14-3-3 isoforms; assay: Binding to 14-3-3 isoforms using LC-MS qTOF; conditions: 1:5 protein:peptide, overnight, intact protein LC/MS
Protocol: The complexes were buffer-exchanged into milliQ + 0.1% formic acid after overnight incubation at 4 °C.
UPLC-QToF-MS analysis was performed on a Waters (Milford, MA, USA) Acquity I-Class UPLC system coupled to a Waters Xevo G2 quadrupole time-of-flight (QToF) mass spectrometer. The devices were controlled by MassLynx Software (version 4.1, Waters, MA, USA). Full scan in positive electrospray ionization (ESI+) mode was used as MS acquisition mode with an acquisition range from 200–2000 m/z. […] The samples concentration were 0.01–0.1 mg/mL, and the injection volume was 1 µL. Deconvolution was performed by the MaxEnt1 option of the MassLynx software. Errors were calculated using the MaxEnt Errors option.
Supplementary Figure 6: Isoform selectivity of 14-3-3 covalent binding peptides
Binding of electrophilic peptides to 14-3-3 isoforms. Peptides were incubated with the various indicated
isoforms overnight at room temperature, diluted and analyzed using intact protein LC/MS.

[2] = Differential scanning fluorimetry of Im proteins and Im-E9 complexes; conditions: DSF, SYPRO Orange, 40 µM protein; for Tm average: average of 3 technical replicates
[3] = tested on: 14-3-3σ; assay: LC/MS/MS (parallel reaction monitoring) characterization of labeling sites in 14-3-3σ; assay type: binding, human
Protocol: This was followed by addition of iodoacetamide to 10 mM and incubation of 40 min at room temperature in the dark. The samples were then processed using S-trap (Protify) according to the manufacturer's instructions, followed by desalting using Oasis plate (Waters). […] The mobile phase was: […] Ionization was achieved using a 1900 V spray voltage with an ion transfer tube temperature of 275 °C. Initially, data were acquired in data-dependent acquisition (DDA) mode. MS1 resolution was set to 120,000 (at 200 m/z), a mass range of 375-1650 m/z, normalized AGC of 300%, and the maximum injection time was set to 20 ms. […] The DDA data was analyzed using MaxQuant 1.6.3.4[110]. The database contained the sequence of the 14-3-3σ construct used in the study, and contaminants were included. Methionine oxidation and N terminal acetylation were variable modifications, and carbamidomethyl was a fixed modification in the analysis, with up to 4 modifications per peptide. Digestion was defined as trypsin/P with up to 2 missed cleavages. PSM FDR was defined as 1 and Protein FDR/Site Decoy fraction were defined as 0.01. Second Peptides were enabled and Match between runs was enabled with a Match time window of 0.7 min. The data was imported into skyline (version 22.2.0.351) and precursors from 9 peptides containing or following the residues […], […] and […] were selected for parallel reaction monitoring (PRM). In every acquisition cycle, one full MS spectrum was taken at a range of 350-1000 Da, 300% AGC target, maximum injection time 20 ms at a resolution of 120,000. Data for each precursor was measured during a 4-5 min window around the retention time measured in the DDA run, with Q1 resolution of 2 Da, orbitrap resolution of 15,000, 300% AGC target and maximum injection time of 160 ms. The acquired data was then analyzed in skyline using a spectral library generated from the DDA runs. The 3 most intense product ions were used for quantitation relative to the DMSO control. data have been deposited to the ProteomeXchange Consortium via the PRIDE[111] partner repository with the dataset identifier PXD044257 and 10.6019/PXD044257. […] Supplementary Figure 4. Methacrylate peptides label different 14-3-3σ residues. a) Following incubation with the peptides, samples of 14-3-3σ were trypsinized and tryptic peptides containing or following potential target residues were quantified using parallel reaction monitoring. 95% confidence intervals for the integrated signal for the peptides were calculated from n = 3 runs. The ratio to DMSO was calculated and the confidence interval for the ratio was calculated by standard error […] temperature and the products were characterized using LC/MS. c) 14-3-3σ was incubated with peptide 8 until fully labeled, followed by incubation with TCEP or DTT for 130 minutes at room temperature and analysis by LC/MS. d) 14-3-3σ was incubated with BODIPY-modified peptides until fully labeled. The samples were then denatured using Lithium Dodecyl Sulfate buffer in different conditions (with or without heating and with or without DTT) and analyzed by SDS-PAGE.

[4] = tested on: A549 lysates; assay: Pull-down proteomics with biotinylated peptides in A549 lysates; assay type: binding, human; conditions: biotinylated derivatives of the peptides, 1 µM, 22 h, 25 °C, streptavidin enrichment, LC-MS/MS
Protocol: We synthesized and purified N terminally biotinylated derivatives of peptides 3 and 8. A549 cells were harvested and lysed as described before. The lysates were diluted to 1.9 mg/ml in lysis buffer, and the peptides were diluted to 20 µM in 20% DMSO/lysis buffer. 142.5 µl of lysate were mixed with 7.5 µl of 20 µM peptide stock and the samples were incubated at 25 °C for 22 h. The proteins were precipitated by addition of 450 µl water, 600 µl HPLC grade methanol and 150 µl HPLC grade chloroform, followed by vortexing and centrifugation for 10 min at 21,000 × g at 4 °C. The top layer was aspirated, and 600 µl methanol was added and the sample was vortexed and centrifuged again, followed by aspiration of the supernatant. The pellet was air-dried and kept at −80 °C. The pellet was dissolved in 200 µl of 2.5% SDS in PBS with heating to 60 °C and shaking at 1150 rpm for 30 min. […]
The beads were centrifuged and the supernatant was mixed 1:1 with 0.2% TFA in water. […] Samples were analyzed using EASY-nLC 1200 nano-flow UPLC system, using PepMap RSLC C18 column (2 μm particle size, 100 Å pore size, 75 μm diameter × 50 cm length), mounted using an EASY-Spray source onto an Exploris 240 mass spectrometer. uLC/MS-grade solvents were used for all chromatographic steps at 300 nL/min. […] Four samples were analyzed per condition. […]

Substance: Ac-RAH-(pT)-SPASL-X-NH2 [Peptide 12, reference compound]
labeling of 14-3-3 isoforms [1]: labeled only the sigma isoform

Substance: Im9: Colicin E9 immunity protein (Im9) in its free, unmodified form
Tm average [2]: 50.3484 celsius | Tm ([2]; technical replicate 1): 50.4442 celsius | Tm ([2]; technical replicate 2): 50.4446 celsius | Tm ([2]; technical replicate 3): 50.1565 celsius

Substance: Im+E9: Non-covalent complex of Im9 and E9
Tm average [2]: 48.5398 celsius | Tm ([2]; technical replicate 1): 48.3238 celsius | Tm ([2]; technical replicate 2): 48.647 celsius | Tm ([2]; technical replicate 3): 48.6486 celsius

binding site on 14-3-3σ ([3]; 5 µM peptide, 2 µM 14-3-3σ, 48 h room temperature, trypsin digestion, LC/MS/MS relative to DMSO control): Lys122 as the likely binding site
Substance: Ac-RAH-(pT)-(mC)-PASLQ-NH2 [Peptide 8, Methacrylate phosphopeptide derived from YAP-1 (PDB 3MHR)]
Fold Change Result, 14-3-3σ tryptic peptide GAVEKGEELSCEER ([3]; LC/MS/MS PRM, abundance of unmodified tryptic peptide GAVEKGEELSCEER, Pep8-treated vs DMSO, adjusted P-value 0.0029, CI 1.19-1.88): 1.5 | Fold Change Result, 14-3-3σ tryptic peptide GDYYRYLAEVATGDDK ([3]; LC/MS/MS PRM, tryptic peptide GDYYRYLAEVATGDDK, Pep8-treated vs DMSO, adjusted P-value 0, CI 0.08-0.11): 0.1 | Fold Change Result, 14-3-3σ tryptic peptide GEELSCEER ([3]; LC/MS/MS PRM, tryptic peptide GEELSCEER, Pep8-treated vs DMSO, adjusted P-value 0.8934, CI 0.72-1.42): 1.01 | Fold Change Result, 14-3-3σ tryptic peptide MKGDYYR ([3]; LC/MS/MS PRM, tryptic peptide MKGDYYR, Pep8-treated vs DMSO, adjusted P-value 0.0163, CI 0.25-1.05): 0.51 | Fold Change Result, 14-3-3σ tryptic peptide MKGDYYRYLAEVATGDDK ([3]; LC/MS/MS PRM, tryptic peptide MKGDYYRYLAEVATGDDK, Pep8-treated vs DMSO, adjusted P-value 0.0003, CI 0.07-0.22): 0.13 | Fold Change Result, 14-3-3σ tryptic peptide NLLSVAYK ([3]; LC/MS/MS PRM, tryptic peptide NLLSVAYK, Pep8-treated vs DMSO, adjusted P-value 0.0652, CI 0.93-1.32): 1.11 | Fold Change Result, 14-3-3σ tryptic peptide NLLSVAYKNVVGGQR ([3]; LC/MS/MS PRM, tryptic peptide NLLSVAYKNVVGGQR, Pep8-treated vs DMSO, adjusted P-value 0.0062, CI 1.03-1.29): 1.15 | Fold Change Result, 14-3-3σ tryptic peptide VFYLKMK ([3]; LC/MS/MS PRM, tryptic peptide VFYLKMK, Pep8-treated vs DMSO, adjusted P-value 0.003, CI 0.17-0.65): 0.33 | Fold Change Result, 14-3-3σ tryptic peptide VFYLKMKGDYYR ([3]; LC/MS/MS PRM, tryptic peptide VFYLKMKGDYYR, Pep8-treated vs DMSO, adjusted P-value 0.0029, CI 0.53-0.84): 0.67 | labeling of 14-3-3 isoforms [1]: labeled all isoforms with similar efficiencies | selectivity in pull-down proteomics [4]: selective, pan-14-3-3 reactive probes
